Measurements from patent publication EP1903056A2, “HLA-A1, -A2 -A3, -A24, -B7, and -B44 tumor associated antigen peptides and compositions” (priority 2002, dated 2004).
“Also recorded” adds a separate entry of the source. Read-outs that look alike come from different tables or passages of the source.

How the values were obtained:
[1] = target: B*5301 (Homo sapiens, UniProt P01889, A329T/A93T/A95T/C349S/D201E/D98Y/E176V/E187L/E204Q/E69T/G107R/I218V/K202T/L105A/L119I/N104I/Q94N/R106L/R155S/R180L/S101N/S121R/S35A/S48A/T118I/V127L/V306I/V36M/Y140S/Y91F); experiment: Class I peptide-binding assay, B*5301
[2] = target: B*3501 (Homo sapiens, UniProt P01889, A329T/A93T/A95T/C349S/D201E/D98Y/E176V/E187L/E204Q/E69T/I218V/K202T/L119I/Q94N/R155S/R180L/S121R/S35A/S48A/T118I/V127L/V306I/V36M/Y140S/Y91F); experiment: Class I peptide-binding assay, B*3501
[3] = target: B*5101 (Homo sapiens, UniProt P01889, A329T/A93T/A95T/C349S/D138N/D201E/D98Y/E187L/E204Q/E69T/G107R/I218V/K202T/L105A/L119W/N104I/Q94N/R106L/R155S/R180L/S101N/S121T/S35A/S48A/V306I/V36M/Y195H/Y91F); experiment: Class I peptide-binding assay, B*5101
[4] = target: HLA-B*0702 (Homo sapiens, UniProt P01889); experiment: Class I peptide-binding assay, B*0702
[5] = system: B7 supertype family (B*0702, B*3501, B*5101, B*5301, and B*5401); experiment: B7 supertype cross-binding (alleles bound); design: species or system human
[6] = target: B*5401 (Homo sapiens, UniProt P01889, A329T/C349S/D138N/D201E/E176V/E187T/E204Q/E69G/I76V/K202T/L119W/R155S/R180L/S121T/S35A/S48A/V127L/V306I/V36M/Y140L); experiment: Class I peptide-binding assay, B*5401
[7] = system: Tumor target cell line (SW403, SW480, 624mel, 938mel, SW403 transfected with p53); experiment: Primary CTL induction cultures, HLA-A3 peptides: tumor target recognition; type: cell-based, human; details: result in words
[8] = system: A3 supertype family (A*0301, A*1101, A*3101, A*3301, and A*6801); experiment: A3 supertype cross-binding (alleles bound); design: species or system human; details: for Number of A3 alleles crossbound: Table 16a
[9] = system: Wildtype-pulsed EHM target cell line; experiment: Primary CTL induction cultures, HLA-A3 peptides: peptide-pulsed targets (51Cr release or in situ IFNγ ELISA); type: cell-based, human; details: result in words
[10] = target: A*3301 (Homo sapiens, UniProt P04439, A270S/D185E/E176V/E277Q/E87N/F33T/G231S/H175R/I121M/I218V/I322F/K168Q/K210R/L300P/L318F/M331R/P217A/Q86R/Q94H/R138Q/T323A/T345S/T97I/V358M/Y195H); experiment: Class I peptide-binding assay, A*3301; details: Table 16a; read-out: HLA Binding (IC50 nM) A*3301
[11] = target: A*1101 (Homo sapiens, UniProt P04439, A114D/D185E/E176A/F33Y/L180Q/S129P/T187R); experiment: Class I peptide-binding assay, A*1101; details: Table 16a
[12] = target: A*6801 (Homo sapiens, UniProt P04439, A269V/D185E/E176V/E277Q/E87N/F33Y/G231S/I121M/I166T/I218V/L180W/L300P/L318F/N151K/P208A/P217A/Q86R/R169H/T345S); experiment: Class I peptide-binding assay, A*6801; details: Table 16a; read-out: HLA Binding (IC50 nM) A*6801
[13] = target: A*3101 (Homo sapiens, UniProt P04439, A270S/D185E/E176V/E277Q/F33T/G231S/G80R/H175R/I121M/I218V/I322F/K168Q/L300P/L318F/M331R/P217A/Q94H/R138Q/T323A/T345S/T97I/V358M); experiment: Class I peptide-binding assay, A*3101; details: Table 16a; read-out: HLA Binding (IC50 nM) A*3101
[14] = system: peptide-pulsed target cells; experiment: In vitro primary CTL induction, A2 peptides: recognition of peptide-pulsed targets (chromium release or IFNγ ELISA); type: cell-based, human; details: Table 6, number of donors yielding a positive response/ total tested
[15] = system: PBMC from three healthy donors; experiment: In vitro primary immunization of PBMC, T cell proliferation (3H-thymidine incorporation); type: cell-based, human
[16] = system: HLA-DR molecules; details: 16 of the most prevalent HLA-DR molecules tested; cited from earlier work
[17] = target: B*4501 (Homo sapiens, UniProt P01889, A329T/A65T/A93T/A95T/C349S/D138N/D201E/D98Y/E176V/E187L/E204Q/E69K/H137Y/K202T/L119W/N87E/Q56L/Q94N/R155S/R180D/S121R/S35A/S48T/V127L/V306I/V36M/W191S/Y140L/Y33H/Y91S); experiment: B44 supertype peptide binding, B*4501; details: HER 2/neu-derived B44 peptides, Table 27; read-out: B* 4501
[18] = target: B*4001(B60) (Homo sapiens, UniProt P01889, A65T/A93T/A95T/D138N/D98Y/E176V/E69K/N87E/Q56L/Q94N/R180L/S121R/S35A/S48T/T167S/V36M/W171L/Y33H/Y91S); experiment: B44 supertype peptide binding, B*4001; details: HER 2/neu-derived B44 peptides, Table 27; read-out: B* 4001
[19] = target: B*1801 (Homo sapiens, UniProt P01889, A329T/A93T/A95T/C349S/D201E/D54G/D98Y/E176V/E187T/E204Q/E69T/K202T/Q94N/R155S/R180L/S121R/V306I/Y140S/Y195H/Y33H/Y91S); experiment: B44 supertype peptide binding, B*1801; details: HER 2/neu-derived B44 peptides, Table 27
[20] = system: B44 supertype (B*1801, B*4001, B*4002, B*4402, B*4403, B*4501); experiment: B44 supertype cross-binding (degeneracy, number of alleles bound); design: species or system human; details: number of the six B44 supertype alleles bound
[21] = read-out: B*[…], Table 21, TAA-derived B7 supertype candidates
[22] = Table 21, TAA-derived B7 supertype candidates

In the case of `CC(C)C[C@H](NC(=O)[C@H](Cc1c[nH]cn1)NC(=O)[C@H](CCC(N)=O)NC(=O)[C@@H]1CCCN1C(=O)[C@@H](N)CC(C)C)C(=O)N[C@@H](Cc1ccccc1)C(=O)NCC(=O)N[C@@H](Cc1ccc(O)cc1)C(=O)N[C@@H](CO)C(=O)N[C@@H](Cc1c[nH]c2ccccc12)C(=O)O` [CEA.58], the IC50 ([1]; Table 17a) is reported as 22 nM, the IC50 ([2]; Table 17a) is reported as 9000 nM and the IC50 ([3]; Table 17a) is reported as 10000 nM. The IC50 [4] was 10000 nM, the “Number of B7 alleles crossbound” value ([5]; Table 17a) was 1 and the IC50 ([6]; Table 17a) was 4350 nM.

For `CC(C)C[C@H](NC(=O)[C@@H](N)Cc1c[nH]cn1)C(=O)N[C@@H](Cc1ccccc1)C(=O)NCC(=O)N[C@@H](Cc1ccc(O)cc1)C(=O)N[C@@H](CO)C(=O)N[C@@H](Cc1c[nH]c2ccccc12)C(=O)N[C@@H](Cc1ccc(O)cc1)C(=O)N[C@@H](CCCCN)C(=O)O` [CEA.61], the “recognition of tumor / endogenous targets by induced CTLs” value [7] was “generated by natural processing; also recorded: induce tumor-reactive CTLs; also recorded: recognize endogenous targets”, the “Number of A3 alleles crossbound” value [8] was 5 and the “number of A3 superfamily alleles bound” value ([8]; of 5 alleles, affinity ≤500nM) was “five”. The IC50 ([8]; read-out: binding affinity to the alleles of the A3 superfamily stated as bound) was at most 50 nM and the “in vitro immunogenicity: CTL induction, recognition of peptide-pulsed targets” value [9] was “immunogenic”.

For `CC(C)C[C@H](NC(=O)[C@@H](NC(=O)[C@@H](N)CCCNC(=N)N)C(C)C)C(=O)N[C@H](C(=O)N[C@@H](CC(C)C)C(=O)N[C@@H](Cc1ccccc1)C(=O)N[C@@H](CC(N)=O)C(=O)N[C@H](C(=O)N[C@H](C(=O)N[C@@H](CCCNC(=N)N)C(=O)O)[C@@H](C)O)C(C)C)[C@@H](C)O` [CEA.554.V2], the IC50 [10] was 7630 nM, the IC50 [11] was 94 nM and the IC50 [12] was 42 nM. For the same compound, the IC50 [13] was 9 nM, the “Number of A3 alleles crossbound” value [8] was 4 and the “change of A3 supertype binding of analog compared to wildtype peptide” value ([8]; result in words) was “no improvement in binding capacity”.

In the case of `CC[C@H](C)[C@H](NC(=O)[C@@H](N)CCCCN)C(=O)N[C@@H](Cc1ccccc1)C(=O)NCC(=O)N[C@@H](CO)C(=O)N[C@@H](CC(C)C)C(=O)N[C@@H](C)C(=O)N[C@@H](Cc1ccccc1)C(=O)N[C@@H](CC(C)C)C(=O)O` [Her2/neu.369], the “CTL Sequence” value ([14]; targets pulsed with the peptide itself) is reported as 10/11 and the “CTL Wild-type Sequence” value ([14]; wild-type sequence) is reported as 10/11.

With `CC(C)C[C@H](NC(=O)[C@@H](N)C(C)C)C(=O)N[C@@H](CCCNC(=N)N)C(=O)N[C@@H](CCC(=O)O)C(=O)N[C@@H](CC(N)=O)C(=O)N[C@H](C(=O)N[C@@H](CO)C(=O)N1CCC[C@H]1C(=O)N[C@@H](CCCCN)C(=O)O)[C@@H](C)O` [Her2/neu.754] the “recognition of tumor / endogenous targets by induced CTLs” value [7] was “induce tumor-reactive CTLs” and the “in vitro immunogenicity: CTL induction, recognition of peptide-pulsed targets” value [9] was “immunogenic”.

Work on `CC(C)C[C@H](NC(=O)[C@@H]1CCCN1C(=O)CNC(=O)[C@H](CCC(=O)O)NC(=O)[C@H](CCCNC(=N)N)NC(=O)[C@@H]1CCCN1C(=O)[C@H](CO)NC(=O)[C@@H]1CCCN1C(=O)[C@@H]1CCCN1)C(=O)N1CCC[C@H]1C(=O)N[C@@H](C)C(=O)O` [Her2/neu.1149] yielded an IC50 ([1]; Table 17b) of 1000 nM, an IC50 ([2]; Table 17b) of 1000 nM and an IC50 ([3]; Table 17b) of 1000 nM. The IC50 [4] was 12 nM, the “Number of B7 alleles crossbound” value ([5]; Table 17b) was 2 and the IC50 ([6]; Table 17b) was 83 nM.

In the case of `CC[C@H](C)[C@H](NC(=O)CNC(=O)[C@@H](NC(=O)[C@H](Cc1ccccc1)NC(=O)[C@H](CCCCN)NC(=O)[C@H](CO)NC(=O)[C@H](CC(N)=O)NC(=O)[C@H](C)NC(=O)[C@H](CCCCN)NC(=O)[C@@H](NC(=O)[C@H](Cc1ccc(O)cc1)NC(=O)[C@@H](N)CCC(N)=O)[C@@H](C)CC)[C@@H](C)CC)C(=O)N[C@H](C(=O)N[C@@H](CCC(=O)O)C(=O)O)[C@@H](C)O` [TT 830-843], the “antigen concentration at which the 10,000 cpm proliferation level was reached” value [15] is listed as “about 10,000 ng/ml”, the “donors with primary T cell responses” value [15] is listed as 2 out of 3 and the “number of HLA-DR molecules bound” value [16] is listed as “seven of 16”.

In the case of `CC[C@H](C)[C@H](NC(=O)[C@@H](NC(=O)[C@@H](NC(=O)[C@H](CC(C)C)NC(=O)[C@H](CC(C)C)NC(=O)CNC(=O)[C@H](C)NC(=O)[C@H](CCCCN)NC(=O)[C@@H]1CCCN1C(=O)[C@@H](N)CCSC)[C@@H](C)CC)[C@@H](C)CC)C(=O)O` [compound 153], the IC50 [1, 21] is reported as 176 nM, the IC50 [2, 21] is reported as 2400 nM and the IC50 [3, 22] is reported as 62 nM. The IC50 [4, 21] was 324 nM, the “No. B7 supertype alleles crossbound (200)” value [5, 22] was 3 and the IC50 [6, 22] was 102 nM.

With `CC[C@H](C)[C@H](NC(=O)[C@H](CCC(=O)O)NC(=O)[C@@H](N)CCCNC(=N)N)C(=O)N1CCC[C@H]1C(=O)N[C@@H](CC(=O)O)C(=O)N[C@@H](CC(C)C)C(=O)N[C@@H](CC(C)C)C(=O)N[C@@H](CCC(=O)O)C(=O)N[C@@H](CCCCN)C(=O)NCC(=O)O` [compound 564] the IC50 [17] was 1980 nM, the IC50 [18] was 4490 nM and the IC50 [19] was 649 nM. It also gave a Degeneracy [20] of 1.
